Reference: ChEMBL document CHEMBL1134812, “Benzamide bioisosteres incorporating dihydroheteroazole substructures: EPC synthesis and SAR leading to a selective dopamine D4 receptor partial agonist (FAUC 179)” (Bioorg Med Chem Lett, 2001)

Chains of the proteins cited; added tags and fusions are not shown.
UniProt P21917, whole entry: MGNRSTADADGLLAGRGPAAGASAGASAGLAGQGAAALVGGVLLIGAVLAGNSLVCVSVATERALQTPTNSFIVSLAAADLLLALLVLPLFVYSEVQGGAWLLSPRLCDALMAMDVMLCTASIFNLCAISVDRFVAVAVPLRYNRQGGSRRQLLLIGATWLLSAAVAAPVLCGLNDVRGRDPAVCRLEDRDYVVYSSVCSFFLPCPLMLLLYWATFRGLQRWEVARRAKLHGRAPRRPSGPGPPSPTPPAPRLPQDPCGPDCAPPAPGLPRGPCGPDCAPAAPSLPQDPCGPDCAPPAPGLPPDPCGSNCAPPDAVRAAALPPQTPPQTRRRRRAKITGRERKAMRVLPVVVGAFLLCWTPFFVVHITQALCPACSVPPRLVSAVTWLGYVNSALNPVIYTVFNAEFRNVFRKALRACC

Columns and labels:
Assay type in all cases: cell-based
D(4) dopamine receptor [1] = biological target: T1, D(4) dopamine receptor (Homo sapiens, UniProt P21917); test: In vitro for its ability to displace [3H]- spiperone from cloned human Dopamine receptor D4 expressed in CHO cells
Outline: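 [3H]Spiperone displacement from cloned human dopamine receptors stably expressed in CHO cells: D2long, D2short, D3 and D4.4 (the D4 line used the D4.4 variant). Ki values were determined.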

D(4) dopamine receptor [2] = biological target: T1, D(4) dopamine receptor; test: In vitro for its ability to displace [3H]- spiperone from cloned human Dopamine receptor D4 expressed in CHO cells; Low binding affinity
D(4) dopamine receptor [3] = biological target: T1, D(4) dopamine receptor; test: In vitro for its ability to displace [3H]- spiperone from cloned human Dopamine receptor D4 expressed in CHO cells; High binding affinity

SMILES	Ki (D(4) dopamine receptor [1]) [nM]	Ki (D(4) dopamine receptor [2]) [nM]	Ki (D(4) dopamine receptor [3]) [nM]
c1ccc(C2=NC[C@H](CN3CCN(c4ccccc4)CC3)N2)cc1 (stereo in doubt)	72		
c1ccc(C2=NC[C@H](CN3CCN(c4ccccc4)CC3)N2)cc1 (stereo in doubt; 4e)		51	0.95
